Measurements taken from US9694016B2 (Novartis AG, priority 2013, dated 2017).

Protein sequences, listed by entry. Tags and fused reporters are not part of them.
UniProt P04049, whole entry Y340E/Y341E: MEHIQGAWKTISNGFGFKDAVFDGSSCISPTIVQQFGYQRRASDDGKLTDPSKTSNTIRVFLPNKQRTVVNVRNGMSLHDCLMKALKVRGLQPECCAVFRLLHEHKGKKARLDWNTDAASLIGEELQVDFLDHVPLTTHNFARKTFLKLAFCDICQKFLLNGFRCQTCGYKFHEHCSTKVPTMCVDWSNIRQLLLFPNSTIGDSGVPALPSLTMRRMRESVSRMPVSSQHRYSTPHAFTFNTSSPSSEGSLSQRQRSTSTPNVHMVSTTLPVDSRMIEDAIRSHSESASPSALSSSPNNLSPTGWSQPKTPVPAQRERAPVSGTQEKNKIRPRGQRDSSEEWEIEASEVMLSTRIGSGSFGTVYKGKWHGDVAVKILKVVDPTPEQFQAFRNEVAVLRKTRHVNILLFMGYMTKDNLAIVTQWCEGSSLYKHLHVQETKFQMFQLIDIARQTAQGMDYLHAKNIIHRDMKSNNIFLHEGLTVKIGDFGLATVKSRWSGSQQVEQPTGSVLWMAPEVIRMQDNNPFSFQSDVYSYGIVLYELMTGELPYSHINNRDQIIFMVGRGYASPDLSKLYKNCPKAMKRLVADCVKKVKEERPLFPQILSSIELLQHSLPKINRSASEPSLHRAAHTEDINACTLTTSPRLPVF

Target: C-Raf FL (full-length C-Raf protein, Y340E and Y341E activating mutations) (Homo sapiens (Human), UniProt P04049, Y340E/Y341E)
Type: biochemical
Details: AlphaScreen, 60 min pre-incubation, 1 hour reaction; read-out: c-Raf FL IC-50

SMILES | IC50 [nM]
Cc1ccc(NC(=O)c2ccnc(C(C)(F)F)c2)cc1-c1cc(N2CCOC[C@@H]2C)n(C)c(=O)c1 [Example 525, (S)-2-(1,1-difluoroethyl)-N-(4-methyl-3-(1-methyl-6-(3-methylmorpholino)-2-oxo-1,2-dihydropyridin-4-yl)phenyl)isonicotinamide] | 0.7
Cc1ccc(NC(=O)c2ccnc(C(C)(F)F)c2)cc1-c1cc(N2C3CCC2COC3)n(C)c(=O)c1 [Example 527, N-(3-(6-(3-oxa-8-azabicyclo[3.2.1]octan-8-yl)-1-methyl-2-oxo-1,2-dihydropyridin-4-yl)-4-methylphenyl)-2-(1,1-difluoroethyl)isonicotinamide] | 1
Cn1c(N2C3CCC2COC3)cc(-c2cc(NC(=O)c3ccnc(C(C)(F)F)c3)cnc2Cl)cc1=O [Example 528, N-(6′-(3-oxa-8-azabicyclo[3.2.1]octan-8-yl)-2-chloro-1′-methyl-2′-oxo-1′,2′-dihydro-[3,4′-bipyridin]-5-yl)-2-(1,1-difluoroethyl)isonicotinamide] | 4
Cc1ncc(NC(=O)c2ccnc(C(C)(C)C#N)c2)cc1-c1cncc(N2CCOCC2)n1 [Example 532, 2-(2-cyanopropan-2-yl)-N-(6-methyl-5-(6-morpholinopyrazin-2-yl)pyridin-3-yl)isonicotinamide] | 1.2
Cc1ncc(NC(=O)c2ccnc(C(C)(F)F)c2)cc1-c1cncc(N2CCOCC2)n1 [Example 533, 2-(1,1-difluoroethyl)-N-(6-methyl-5-(6-morpholinopyrazin-2-yl)pyridin-3-yl)isonicotinamide] | 0.6
Cc1ncc(NC(=O)c2ccnc(C(C)(C)F)c2)cc1-c1cncc(N2CCOCC2)n1 [Example 534, 2-(2-fluoropropan-2-yl)-N-(6-methyl-5-(6-morpholinopyrazin-2-yl)pyridin-3-yl)isonicotinamide] | 1.1
CCC(F)(F)c1cc(C(=O)Nc2cnc(C)c(-c3cncc(N4CCOCC4)n3)c2)ccn1 [Example 537, 2-(1,1-difluoropropyl)-N-(6-methyl-5-(6-morpholinopyrazin-2-yl)pyridin-3-yl)isonicotinamide] | 0.6
CCOc1ncc(-c2cc(NC(=O)c3cccc(C(F)(F)F)c3)ccc2C)nc1N1CCOCC1 [Example 538, N-(3-(5-ethoxy-6-morpholinopyrazin-2-yl)-4-methylphenyl)-3-(trifluoromethyl)benzamide] | 0.3
CCOc1ncc(-c2cc(NC(=O)c3cccc(C(F)(F)F)c3)cnc2C)nc1N1CCOCC1 [Example 539, N-(5-(5-ethoxy-6-morpholinopyrazin-2-yl)-6-methylpyridin-3-yl)-3-(trifluoromethyl)benzamide] | 0.8
COc1nnc(-c2cc(NC(=O)c3ccnc(C(C)(F)F)c3)ccc2C)cc1N1CCOCC1 [Example 548, 2-(1,1-difluoroethyl)-N-(3-(6-methoxy-5-morpholinopyridazin-3-yl)-4-methylphenyl)isonicotinamide] | 0.3
COc1nnc(-c2cc(NC(=O)c3cnnc(C(F)(F)F)c3)ccc2C)cc1N1CCOCC1 [Example 551, N-(3-(6-methoxy-5-morpholinopyridazin-3-yl)-4-methylphenyl)-6-(trifluoromethyl)pyridazine-4-carboxamide] | 0.5
COc1nnc(-c2cc(NC(=O)c3ccnc(C(C)(C)F)c3)ccc2C)cc1N1CCOCC1 [Example 552, 2-(2-fluoropropan-2-yl)-N-(3-(6-methoxy-5-morpholinopyridazin-3-yl)-4-methylphenyl)isonicotinamide] | 0.8
COc1nnc(-c2cc(NC(=O)c3ccnc(C(C)(C)C#N)c3)ccc2C)cc1N1CCOCC1 [Example 558, 2-(2-cyanopropan-2-yl)-N-(3-(6-methoxy-5-morpholinopyridazin-3-yl)-4-methylphenyl)isonicotinamide] | 0.7
CCOc1nnc(-c2cc(NC(=O)c3ccnc(C(F)F)c3)ccc2C)cc1N1CCOCC1 [Example 562, 2-(difluoromethyl)-N-(3-(6-ethoxy-5-morpholinopyridazin-3-yl)-4-methylphenyl)isonicotinamide] | 0.2
CCOc1nnc(-c2cc(NC(=O)c3ccnc(C4CC4)c3)ccc2C)cc1N1CCOCC1 [Example 563, 2-cyclopropyl-N-(3-(6-ethoxy-5-morpholinopyridazin-3-yl)-4-methylphenyl)isonicotinamide] | 0.2
CCOc1nnc(-c2cc(NC(=O)c3cnnc(C(C)(C)C#N)c3)ccc2C)cc1N1CCOCC1 [Example 567, 6-(2-cyanopropan-2-yl)-N-(3-(6-ethoxy-5-morpholinopyridazin-3-yl)-4-methylphenyl)pyridazine-4-carboxamide] | 0.8

More lines, in order of falling IC50, values ahead:

IC50 [nM] | SMILES
3.9 | CCOc1ncc(-c2cc(NC(=O)c3cc(CN(C)C)cc(C(F)(F)F)c3)cnc2C)nc1N1CCOCC1 [Example 545, 3-((dimethylamino)methyl)-N-(5-(5-ethoxy-6-morpholinopyrazin-2-yl)-6-methylpyridin-3-yl)-5-(trifluoromethyl)benzamide]
2.2 | COc1nnc(-c2cc(NC(=O)c3cnnc(C(C)(C)C#N)c3)ccc2C)cc1N1CCOCC1 [Example 557, 6-(2-cyanopropan-2-yl)-N-(3-(6-methoxy-5-morpholinopyridazin-3-yl)-4-methylphenyl)pyridazine-4-carboxamide]
1.5 | COc1nnc(-c2cc(NC(=O)c3ccnc(C(C)(C)O)c3)ccc2C)cc1N1CCOCC1 [Example 556, 2-(2-hydroxypropan-2-yl)-N-(3-(6-methoxy-5-morpholinopyridazin-3-yl)-4-methylphenyl)isonicotinamide]
0.8 | Cc1ccc(NC(=O)c2ccnc(C(C)(C)C#N)c2)cc1-c1cncc(N2CCOCC2)n1 [Example 531, 2-(2-cyanopropan-2-yl)-N-(4-methyl-3-(6-morpholinopyrazin-2-yl)phenyl)isonicotinamide]
0.8 | COc1ncc(-c2cc(NC(=O)c3ccnc(S(C)(=O)=O)c3)ccc2C)nc1N1CCOCC1 [Example 546, N-(3-(5-methoxy-6-morpholinopyrazin-2-yl)-4-methylphenyl)-2-(methylsulfonyl)isonicotinamide]
0.5 | CCC(F)(F)c1cc(C(=O)Nc2ccc(C)c(-c3cc(N4CCOCC4)c(OC)nn3)c2)ccn1 [Example 549, 2-(1,1-difluoropropyl)-N-(3-(6-methoxy-5-morpholinopyridazin-3-yl)-4-methylphenyl)isonicotinamide]
0.3 | CCOc1nnc(-c2cc(NC(=O)c3ccnc(C(F)(F)CC)c3)ccc2C)cc1N1CCOCC1 [Example 560, 2-(1,1-difluoropropyl)-N-(3-(6-ethoxy-5-morpholinopyridazin-3-yl)-4-methylphenyl)isonicotinamide]
0.3 | CCOc1nnc(-c2cc(NC(=O)c3cccc(S(C)(=O)=O)c3)ccc2C)cc1N1CCOCC1 [Example 559, N-(3-(6-ethoxy-5-morpholinopyridazin-3-yl)-4-methylphenyl)-3-(methylsulfonyl)benzamide]
0.2 | CCOc1nnc(-c2cc(NC(=O)c3ccnc(C4(C#N)CC4)c3)ccc2C)cc1N1CCOCC1 [Example 568, 2-(1-cyanocyclopropyl)-N-(3-(6-ethoxy-5-morpholinopyridazin-3-yl)-4-methylphenyl)isonicotinamide]
